Test results taken from patent US10898481B2 (priority 2018, dated 2021).

Protein sequences, listed by entry. Tags and fused reporters are not part of them. Lines headed by an entry give the natural chain unless they say otherwise; changes in a name come on top.
UniProt Q60613, whole entry: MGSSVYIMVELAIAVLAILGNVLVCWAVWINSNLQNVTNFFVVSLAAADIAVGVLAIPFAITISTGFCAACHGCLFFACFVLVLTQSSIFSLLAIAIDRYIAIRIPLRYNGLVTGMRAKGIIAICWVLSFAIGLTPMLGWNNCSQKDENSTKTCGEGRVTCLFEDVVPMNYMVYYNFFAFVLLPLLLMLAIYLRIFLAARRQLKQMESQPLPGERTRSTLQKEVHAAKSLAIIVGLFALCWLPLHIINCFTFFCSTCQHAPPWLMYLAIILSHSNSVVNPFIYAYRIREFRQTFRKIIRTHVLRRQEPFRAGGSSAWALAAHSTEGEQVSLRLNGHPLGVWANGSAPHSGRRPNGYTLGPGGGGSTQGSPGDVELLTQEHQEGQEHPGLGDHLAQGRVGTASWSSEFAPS
UniProt P30542, whole entry: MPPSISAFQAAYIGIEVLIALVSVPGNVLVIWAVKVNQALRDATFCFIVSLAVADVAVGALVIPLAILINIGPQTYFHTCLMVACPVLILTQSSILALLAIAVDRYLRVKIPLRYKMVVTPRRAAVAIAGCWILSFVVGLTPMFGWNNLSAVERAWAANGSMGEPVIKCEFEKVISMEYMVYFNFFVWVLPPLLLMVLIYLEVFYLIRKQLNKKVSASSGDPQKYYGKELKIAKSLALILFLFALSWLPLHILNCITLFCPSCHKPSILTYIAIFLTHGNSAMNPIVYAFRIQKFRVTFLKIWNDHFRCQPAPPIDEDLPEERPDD
UniProt P29275: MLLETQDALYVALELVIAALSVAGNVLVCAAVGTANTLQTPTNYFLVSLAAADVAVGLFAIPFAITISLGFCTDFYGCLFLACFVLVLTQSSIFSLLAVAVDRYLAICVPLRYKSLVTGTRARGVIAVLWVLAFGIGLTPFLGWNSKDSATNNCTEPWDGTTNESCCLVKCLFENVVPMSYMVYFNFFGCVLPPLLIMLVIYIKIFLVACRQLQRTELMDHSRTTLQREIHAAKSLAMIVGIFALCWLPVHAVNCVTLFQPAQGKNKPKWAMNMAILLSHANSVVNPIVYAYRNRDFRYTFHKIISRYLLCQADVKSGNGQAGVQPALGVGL

How the values were obtained:
[1] = target: hA2a (Homo sapiens (Human), UniProt P29274); test: Radioligand binding to hA2a membrane with [3H]-CGS21680; conditions: read-out: Binding Affinity (IC50 nM) hA2a
Description: (§1) The empty boxes in the tables below indicate data not collected yet.

[2] = target: hA2a/CHO (Homo sapiens (Human), UniProt P29274); test: cAMP inhibition assay in hA2a/CHO cells, 10 μM adenosine; type: cell-based;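 note: compounds added to cells 30 min ahead of adenosine, then a further 30 min at 37 °C with adenosine before cAMP detection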
[3] = target: mA2a/CHO (Mus musculus (Mouse), UniProt Q60613); test: cAMP inhibition assay in mA2a/CHO cells, 10 μM adenosine; type: cell-based;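 note: compounds preincubated 30 min at 37 °C before the adenosine challenge, then 30 min further stimulation, readout after 60 min detection reagent incubation at room temperature in 384-well plates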
[4] = target: hADORA1/CHO (hA1 expressing) cells (Homo sapiens (Human), UniProt P30542); test: cell-based; conditions: 10 μM adenosine
[5] = target: hA2b/CHO (Homo sapiens (Human), UniProt P29275); test: cAMP inhibition assay in hA2b/CHO cells, 10 μM adenosine; type: cell-based;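 note: cells exposed to compound 30 min at 37 °C, then stimulated with adenosine a further 30 min, cAMP read after 60 min at room temperature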
[6] = target: hA1 (Homo sapiens (Human), UniProt P30542); test: biochemical; conditions: Binding Affinity (IC50 nM) hA1, hA1 membrane, [3H]-DPCPX
Description: as §1

[7] = read-out: cAMP & FLIPR IC50 (nM) hA2a
[8] = read-out: cAMP & FLIPR IC50 (nM) mA2a
[9] = cAMP & FLIPR IC50 (nM) hA1, FLIPR inhibition
[10] = read-out: cAMP & FLIPR IC50 (nM) hA2b
[11] = FLIPR inhibition, read-out: cAMP & FLIPR IC50 (nM) hA1

SMILES | IC50 [2, 7] | IC50 [3, 8] | IC50 [4, 9] | IC50 [5, 10] | other results
CNCCOc1cccnc1CNC(=O)c1nc(-c2ccc3ncn(C)c3c2)c(-c2ccc(F)cc2)nc1N [Example 115, 3-amino-5-(4-fluorophenyl)-6-(1-methyl-1H-1,3-benzodiazol-6-yl)-N-([3-[2-(methylamino)ethoxy]pyridin-2-yl]methyl)pyrazine-2-carboxamide] | 3.2 nM | – | – | – | IC50 [1]: 6.9 nM
Cc1cnc2ccc(-c3nc(C(=O)NCC4CCN(C)C4=O)c(N)nc3-c3ncco3)cn12 (single isomer, unassigned; isomer 1) [Example 216, 3-amino-N-((1-methyl-2-oxopyrrolidin-3-yl)methyl)-6-(3-methylimidazo[1,2-a]pyridin-6-yl)-5-(oxazol-2-yl)pyrazine-2-carboxamide (isomer 1)] | 5.1 nM | 24 nM | 799 nM | 282 nM | –
Cc1cnc2ccc(-c3nc(C(=O)NCC4CCN(C)C4=O)c(N)nc3-c3ncco3)cn12 (single isomer, unassigned; isomer 2) [Example 222, 3-amino-N-((1-methyl-2-oxopyrrolidin-3-yl)methyl)-6-(3-methylimidazo[1,2-a]pyridin-6-yl)-5-(oxazol-2-yl) pyrazine-2-carboxamide (isomer 2)] | 9.6 nM | 43 nM | > 10000 nM | 2770 nM | –
Cc1cnc2ccc(-c3nc(C(=O)NC[C@H]4CCCN4C)c(N)nc3-c3ccccc3)cn12 [Cmpd. 259, 3-amino-6-[3-methylimidazo[1,2-a]pyridin-6-yl]-N-[[(2R)-1-methylpyrrolidin-2-yl]methyl]-5-phenylpyrazine-2-carboxamide] | – | – | 47 nM | – | –
Cc1cnc2ccc(-c3nc(C(=O)NC[C@@H]4CCN(C(=O)N(C)C)C4)c(N)nc3-c3ncco3)cn12 [Example 273, 3-amino-N-[[(3 S)-1-(dimethylcarbamoyl)pyrrolidin-3-yl]methyl]-6-[3-methylimidazo[1,2-a]pyridin-6-yl]-5-(1,3-oxazol-2-yl)pyrazine-2-carboxamide] | 1.5 nM | – | – | – | IC50 [4, 11]: 1310 nM
Cc1cnc2ccc(-c3nc(C(=O)NCC4CCCN4C)c(N)nc3-c3ncco3)cn12 (single isomer, unassigned) [Example 121] | – | – | – | – | IC50 [6]: 116 nM
NCc1cnc2ccc(-c3nc(C(=O)NCc4ncccc4F)c(N)nc3-c3ncco3)cn12 [Cmpd. 198, 3-amino-6-(3-(aminomethyl)imidazo[1,2-a]pyridin-6-yl)-N-((3-fluoropyridin-2-yl)methyl)-5-(oxazol-2-yl)pyrazine-2-carboxamide] | 3.6 nM | 31 nM | – | 38 nM | –
Cc1cnc2ccc(-c3nc(C(=O)NC[C@H]4CCCN4C)c(N)nc3-c3ccc(F)c(F)c3)cn12 [Cmpd. 272, 3-amino-5-(3,4-difluorophenyl)-6-[3-methylimidazo[1,2-a]pyridin-6-yl]-N-[[(2R)-1-methylpyrrolidin-2-yl]methyl]pyrazine-2-carboxamide] | – | – | 338 nM | – | –
Cc1cnc2ccc(-c3nc(C(=O)NCc4ncccc4F)c(N)nc3N3CCOCC3)cn12 [Cmpd. 223, 3-amino-N-[(3-fluoropyridin-2-yl)methyl]-6-[3-methylimidazo[1,2-a]pyridin-6-yl]-5-(morpholin-4-yl)pyrazine-2-carboxamide] | 9.9 nM | 132 nM | – | 525 nM | –
Cc1cnc2ccc(-c3nc(C(=O)NCc4ncccc4F)c(N)nc3-c3ncco3)cn12 [Example 101, 3-amino-N-((3-fluoropyridin-2-yl)methyl)-6-(3-methylimidazo[1,2-a]pyridin-6-yl)-5-(oxazol-2-yl)pyrazine-2-carboxamide] | 0.1 nM | 0.4 nM | – | 1.4 nM | IC50 [1]: 2.4 nM
Cc1cnc2ccc(-c3nc(C(=O)NC[C@@H]4CCCN4C)c(N)nc3-c3ccc(F)cc3)cn12 [Example 139, (S)-3-amino-5-(4-fluorophenyl)-6-(3-methylimidazo[1,2-a]pyridin-6-yl)-N-((1-methylpyrrolidin-2-yl)methyl) pyrazine-2-carboxamide] | 8.8 nM | – | – | – | IC50 [1]: 5.2 nM
Cc1cc(-c2nc(C(=O)NCc3ccccc3OC(F)(F)F)c(N)nc2-c2ccc(F)cc2)cc(C)n1 [Example 65, 3-amino-6-(2,6-dimethylpyridin-4-yl)-5-(4-fluorophenyl)-N-(2-(trifluoromethoxy)benzyl)pyrazine-2-carboxamide] | – | – | – | ≥ 10000 nM | –
Cn1cc(-c2nc(C(=O)NCc3ncccc3OC(F)F)c(N)nc2-c2ncco2)ccc1=O [Example 19, 3-amino-N-[[3-(difluoromethoxy)pyridin-2-yl]methyl]-6-(1-methyl-6-oxo-1,6-dihydropyridin-3-yl)-5-(1,3-oxazol-2-yl)pyrazine-2-carboxamide] | – | 8.8 nM | – | 51 nM | –
Nc1nc(-c2ncco2)c(-c2ccc3[nH]cnc3c2)nc1C(=O)NCc1ncccc1F [Example 47, 3-amino-6-(1H-1,3-benzodiazol-5-yl)-N-[(3-fluoropyridin-2-yl)methyl]-5-(1,3-oxazol-2-yl)pyrazine-2-carboxamide] | 57 nM | 3260 nM | – | 141 nM | IC50 [1]: 2.6 nM
Cc1cnc2ccc(-c3nc(C(=O)N[C@H](C)CC(=O)N(C)C)c(N)nc3-c3ncco3)cn12 [Cmpd. 236, (3R)-3-[(3-amino-6-[3-methylimidazo[1,2-a]pyridin-6-yl]-5-(1,3-oxazol-2-yl)pyrazin-2-yl)formamido]-N,N-dimethylbutanamide] | 17 nM | – | – | – | IC50 [4, 11]: > 10000 nM
Cc1cnc2ccc(-c3nc(CNC(=O)[C@H]4CCCN4C)c(N)nc3-c3ccc(F)c(F)c3)cn12 [Cmpd. 257, (2R)—N-[[3-amino-5-(3,4-difluorophenyl)-6-[3-methylimidazo[1,2-a]pyridin-6-yl]pyrazin-2-yl]methyl]-1-methylpyrrolidine-2-carboxamide] | – | – | 20 nM | – | –
Nc1nc(-n2nccn2)c(-c2ccc3nccn3c2)nc1C(=O)NCc1ncccc1F [Example 104, 3-amino-N-[(3-fluoropyridin-2-yl)methyl]-6-[imidazo[1,2-a]pyridin-6-yl]-5-(2H-1,2,3-triazol-2-yl)pyrazine-2-carboxamide] | 7.9 nM | 52 nM | – | 32 nM | IC50 [1]: 6.2 nM
Cc1cnc2ccc(-c3nc(C(=O)NC45CC(C4)C5)c(N)nc3-c3ncco3)cn12 [Example 220, 3-amino-N-(bicyclo[1.1.1]pentan-1-yl)-6-(3-methylimidazo[1,2-a]pyridin-6-yl)-5-(oxazol-2-yl)pyrazine-2-carboxamide] | 1.7 nM | 42 nM | 4670 nM | 2100 nM | –
Cc1cnc2ccc(-c3nc(C(=O)NCCC(=O)N4CCCC4)c(N)nc3-c3ncco3)cn12 [Example 217, 3-amino-6-(3-methylimidazo[1,2-a]pyridin-6-yl)-5-(oxazol-2-yl)-N-(3-oxo-3-(pyrrolidin-1-yl)propyl)pyrazine-2-carboxamide] | 8.5 nM | 8.3 nM | 4790 nM | 594 nM | –
Cn1cc(-c2nc(C(=O)NCc3nc(N)ccc3F)c(N)nc2-c2ncco2)ccc1=O [Example 49, 3-amino-N-((6-amino-3-fluoropyridin-2-yl)methyl)-6-(1-methyl-6-oxo-1,6-dihydropyridin-3-yl)-5-(oxazol-2-yl)pyrazine-2-carboxamide] | – | – | – | – | IC50 [1]: 5.3 nM; IC50 ([3]; cAMP & FLIPR IC50 (nM) mA2a): 413 nM; IC50 ([2]; cAMP & FLIPR IC50 (nM) hA2a): 138 nM; IC50 ([5]; cAMP & FLIPR IC50 (nM) hA2b): 309 nM
Cc1cnc2ccc(-c3nc(C(=O)NC[C@H]4CCCN4C)c(N)nc3-c3cccc(F)c3)cn12 [Cmpd. 231, (R)-3-amino-5-(3-fluorophenyl)-6-(3-methylimidazo[1,2-a]pyridin-6-yl)-N-((1-methylpyrrolidin-2-yl)methyl)pyrazine-2-carboxamide] | – | – | 306 nM | – | –
Cc1cnc2ccc(-c3nc(C(=O)NC[C@H]4CCCN4C)c(N)nc3-c3ccc(F)cc3)cn12 [Example 138, 3-amino-5-(4-fluorophenyl)-6-[3-methylimidazo[1,2-a]pyridin-6-yl]-N-[[(2R)-1-methylpyrrolidin-2-yl]methyl]pyrazine-2-carboxamide] | 7.1 nM | – | – | – | IC50 [1]: 2.2 nM
Cc1cnc2ccc(-c3nc(C(=O)NCC4CCCN4C)c(N)nc3-c3ncco3)cn12 (single isomer, unassigned) [Example 120] | – | – | – | – | IC50 [6]: 156 nM; IC50 [4, 11]: 10000 nM
Cc1cnc2ccc(-c3nc(C(=O)N[C@@H](C)CC(=O)N(C)C)c(N)nc3-c3ncco3)cn12 [Cmpd. 234, (3 S)-3-[(3-amino-6-[3-methylimidazo[1,2-a]pyridin-6-yl]-5-(1,3-oxazol-2-yl)pyrazin-2-yl)formamido]-N,N-dimethylbutanamide] | 5.3 nM | – | – | – | IC50 [4, 11]: 836 nM

Where two headings read alike, the source gives them in different places.
